Assay results as given in patent US6265617A, “Process for the preparation of 3,5,5-trimethylcyclohexa-3-en-1-one (β-isophorone) by isomerization of 3,5,5- trimethylcyclohexa-2-en-1-one (α-isophorone)” (Degussa-Huls Aktiengesellschaft, priority 1998, dated 2001).

Assay: Catalyst activity in liquid-phase isomerization of α-isophorone to β-isophorone
Source text: The apparatus for carrying out the isomerization consists of a mushroom-shaped heater, an isomerization flask with attached distillation column, through which a primary mixture composed of α-IP and β-IP is withdrawn, and a pump for recirculating the unreacted α-isophorone left after the purifying distillation of β-IP. […] The suspension is heated to boiling point at normal pressure and the quantity of the α-IP delivered by a Telab pump is coordinated with the quantity of the distillate withdrawn.
The primary distillate obtained is conveyed to a distillation column operating at a partial vacuum of 5 mbar to 100 mbar. […]
(§1) Technical sodium hydroxide in various concentrations is stirred into α-IP in the apparatus already described above. With the identical continuous procedure (see Example 1), at the top of the isomerization unit a withdrawal rate of 25 vol.% of a primary distillate is established, based on the quantity of isomerization and the reflux ratio.
as §1, with “potassium carbonate” for “sodium hydroxide”, “ratio. […]” for “ratio.”

For `O=C(O)O` [Na2 CO3, sodium carbonate], the “space-time yield YR-Z based on the volume of the solution being isomerized” value (0.2 mol.% catalyst) was 0.0635 litersβ-IP /h/literSolution and the “Rate of formation of β-IP” value (2 × 10^-1 mol.% catalyst per mol α-IP, boiling point, normal pressure, 25 vol.% withdrawal) was 63.5 g β-IP/h/liter α-IP.
